The target of this test is T1, YFP-BmOR3 (Bombyx mori, UniProt Q5FBE0 1-439).
T1 construct: BmOR3, pheromone (bombykal) receptor of Bombyx mori; also called N-terminal YFP-tagged BmOR3; YFP-WT-BmOR3; source: HEK293, transfected, in living cells; not shown: YFP, N-terminal, kept
T1 sequence (looked up): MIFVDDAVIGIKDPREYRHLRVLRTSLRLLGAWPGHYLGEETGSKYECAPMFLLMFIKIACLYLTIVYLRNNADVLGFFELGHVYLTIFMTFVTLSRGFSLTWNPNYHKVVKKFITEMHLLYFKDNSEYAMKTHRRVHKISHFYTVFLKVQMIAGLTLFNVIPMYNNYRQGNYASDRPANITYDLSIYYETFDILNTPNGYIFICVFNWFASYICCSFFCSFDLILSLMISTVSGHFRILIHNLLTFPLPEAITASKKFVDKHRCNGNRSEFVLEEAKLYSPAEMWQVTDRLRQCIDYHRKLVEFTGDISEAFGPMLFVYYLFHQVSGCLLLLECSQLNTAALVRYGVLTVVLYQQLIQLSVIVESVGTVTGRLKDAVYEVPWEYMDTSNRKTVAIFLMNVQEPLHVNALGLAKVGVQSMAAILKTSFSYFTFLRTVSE
Kind of test: FRET or BRET; G protein recruitment BRET in living HEK293 cells; YFP-BmOR3 with Gi-Rluc; increasing bombykal for 2 min; net BRET after subtracting cells with Gi-Rluc only; net BRET also without bombykal; BmOrco coexpression without significant effect. Particulars: partners not purified. (In general: Bioluminescence resonance energy transfer reports proximity on the nanometre scale.)

B1: Gi1-Rluc (natural protein, UniProt P63096 1-354, looked up)
chain: MGCTLSAEDKAAVERSKMIDRNLREDGEKAAREVKLLLLGAGESGKSTIVKQMKIIHEAGYSEEECKQYKAVVYSNTIQSIIAIIRAMGRLKIDFGDSARADDARQLFVLAGAAEEGFMTAELAGVIKRLWKDSGVQACFNRSREYQLNDSAAYYLNDLDRIAQPNYIPTQQDVLRTRVKTTGIVETHFTFKDLHFKMFDVGGQRSERKKWIHCFEGVTAIIFCVALSDYDLVLAEDEEMNRMHESMKLFDSICNNKWFTDTSIILFLNKKDLFEEKIKKSPLTICYPEYAGSNTYEEAAAYIQCQFEDLNKRKDTKEIYTHFTCATDTKNVQFVFDAVTDVIIKNNLKDCGLF
notes: G protein alpha subunit Gi1 (Gαi1); also called Gαi-Rluc; Rluc-tagged Gi protein; source: HEK293, transfected, in living cells
As to B1, the “EC50 of bombykal for the BRET increase” value was 11.7 ± 1.19 nM.
